In ChEMBL document CHEMBL1121477, “Noval antitumor nitrosoureas and related compounds and their reactions with DNA” (1980):

Key:
[1] = test system: L1210; test: Antitumor activity against lymphoid leukemia L1210 cell implanted in mice was measured by %T/C at a dosage of 20 mg/kg
[2] = test system: L1210; test: Antitumor activity against lymphoid leukemia L1210 cell implanted in mice was measured by mean survival of mice expressed as treated/control at a dosage of 20 mg/kg (11.3/7.1)

SMILES: N/C(=N\[N+](=O)[O-])N(CCCl)N=O
- T/C [1]: 159%
- Mean survival [2]: 11.3 time day-1
